Assay results taken from ChEMBL document CHEMBL1221253, “Fragment-based discovery and optimization of BACE1 inhibitors” (Bioorg Med Chem Lett, 2010).

Chains of the proteins cited; added tags and fusions are not shown. Lines headed by an entry give the natural chain unless they say otherwise; changes in a name come on top.
UniProt P56817: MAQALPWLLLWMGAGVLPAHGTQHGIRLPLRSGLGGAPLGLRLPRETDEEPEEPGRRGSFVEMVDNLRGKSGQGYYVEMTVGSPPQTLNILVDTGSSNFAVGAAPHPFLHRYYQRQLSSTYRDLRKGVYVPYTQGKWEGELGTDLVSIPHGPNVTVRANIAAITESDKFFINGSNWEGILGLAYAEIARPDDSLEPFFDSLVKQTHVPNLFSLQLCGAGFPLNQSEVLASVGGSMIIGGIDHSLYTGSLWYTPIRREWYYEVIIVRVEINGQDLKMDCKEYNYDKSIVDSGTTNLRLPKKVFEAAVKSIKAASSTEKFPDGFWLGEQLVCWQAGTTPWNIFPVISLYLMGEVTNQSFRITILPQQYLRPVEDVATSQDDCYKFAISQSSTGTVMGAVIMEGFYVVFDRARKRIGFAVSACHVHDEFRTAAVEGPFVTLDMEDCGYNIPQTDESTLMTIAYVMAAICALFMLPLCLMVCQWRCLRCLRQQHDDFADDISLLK

Tests used:
Beta-secretase 1 [1] = target: T1, Beta-secretase 1 (Homo sapiens, UniProt P56817); test: Inhibition of human BACE1
Beta-secretase 1 [2] = target: T1, Beta-secretase 1; test: Inhibition of BACE1 assessed as amyloid beta secretion by cell based assay

IC50 (Beta-secretase 1 [1]): 7 µM
IC50 (Beta-secretase 1 [2]): 7 µM
SMILES: CC[C@@H](CC(=O)NCC1CCCCC1)n1c(N)nc2cc(Cl)ccc21
